The subject of this assay is CD19+ B cells. Put plainly: B cell cytokine release assay (anti-Ig, CpG ODN 2006, IFNα). The assay is classed as cell-based, human.

Like-named read-outs stand apart in the source and are kept apart here.

`O=C(c1nn(-c2ccc(CN3CCOCC3)cc2)c2c1CS(=O)(=O)c1c(F)cccc1-2)N1CCOCC1`: the IC50 is, setting by setting: (read-out: IC50 IL-6, 48 h) 88 nM; (read-out: IC50 IL-10, 48 h) 81 nM.

By IC50 is commonly meant the concentration at which inhibition is half-maximal.

Source of the values: paper PMC4033217, “Characterization of Novel PI3Kδ Inhibitors as Potential Therapeutics for SLE and Lupus Nephritis in Pre-Clinical Studies” (Frontiers in Immunology, 2014).
